Two molecules from article PMC12155096 (International Journal of Molecular Sciences, 2025) can be followed below.

Chains of the proteins cited; added tags and fusions are not shown.
UniProt P10635, whole entry: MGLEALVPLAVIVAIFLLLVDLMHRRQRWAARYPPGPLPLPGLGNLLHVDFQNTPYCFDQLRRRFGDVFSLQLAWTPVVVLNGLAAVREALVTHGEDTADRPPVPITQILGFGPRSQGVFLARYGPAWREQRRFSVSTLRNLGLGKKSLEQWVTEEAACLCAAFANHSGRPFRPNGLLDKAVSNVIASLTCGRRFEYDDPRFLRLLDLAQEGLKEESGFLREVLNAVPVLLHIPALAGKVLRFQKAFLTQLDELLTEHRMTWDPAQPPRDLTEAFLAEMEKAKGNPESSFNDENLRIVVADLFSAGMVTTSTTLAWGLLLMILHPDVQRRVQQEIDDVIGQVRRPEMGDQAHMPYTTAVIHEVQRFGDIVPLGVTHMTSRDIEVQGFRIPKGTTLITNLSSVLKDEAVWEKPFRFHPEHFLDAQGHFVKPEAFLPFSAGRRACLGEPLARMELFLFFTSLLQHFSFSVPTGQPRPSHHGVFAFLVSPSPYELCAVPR
UniProt P05177, whole entry: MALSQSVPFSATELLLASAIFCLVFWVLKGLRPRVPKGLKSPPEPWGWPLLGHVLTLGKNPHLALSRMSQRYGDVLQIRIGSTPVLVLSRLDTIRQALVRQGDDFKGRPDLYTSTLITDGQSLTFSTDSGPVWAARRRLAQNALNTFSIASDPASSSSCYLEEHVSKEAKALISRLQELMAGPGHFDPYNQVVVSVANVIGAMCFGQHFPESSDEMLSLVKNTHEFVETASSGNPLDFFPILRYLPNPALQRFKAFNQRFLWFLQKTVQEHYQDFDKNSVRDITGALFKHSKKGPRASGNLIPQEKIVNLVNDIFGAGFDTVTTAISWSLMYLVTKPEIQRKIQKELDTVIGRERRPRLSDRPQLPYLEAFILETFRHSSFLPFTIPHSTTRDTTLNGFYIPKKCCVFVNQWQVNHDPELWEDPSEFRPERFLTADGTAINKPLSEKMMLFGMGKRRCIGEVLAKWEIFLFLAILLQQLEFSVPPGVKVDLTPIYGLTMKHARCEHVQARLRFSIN
UniProt P11712, whole entry: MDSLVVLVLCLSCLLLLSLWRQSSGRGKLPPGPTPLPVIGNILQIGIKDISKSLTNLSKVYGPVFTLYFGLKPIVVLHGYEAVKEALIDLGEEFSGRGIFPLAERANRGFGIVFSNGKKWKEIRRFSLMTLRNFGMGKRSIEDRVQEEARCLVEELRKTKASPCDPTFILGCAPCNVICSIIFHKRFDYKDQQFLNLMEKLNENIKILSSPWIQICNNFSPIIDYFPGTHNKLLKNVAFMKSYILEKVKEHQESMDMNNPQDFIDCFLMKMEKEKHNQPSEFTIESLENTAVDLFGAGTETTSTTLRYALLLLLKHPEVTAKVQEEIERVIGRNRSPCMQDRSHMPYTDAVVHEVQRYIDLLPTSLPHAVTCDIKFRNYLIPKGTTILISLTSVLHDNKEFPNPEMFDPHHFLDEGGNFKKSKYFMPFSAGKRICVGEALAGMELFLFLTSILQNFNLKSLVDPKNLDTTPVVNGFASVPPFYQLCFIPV
UniProt P08684, whole entry: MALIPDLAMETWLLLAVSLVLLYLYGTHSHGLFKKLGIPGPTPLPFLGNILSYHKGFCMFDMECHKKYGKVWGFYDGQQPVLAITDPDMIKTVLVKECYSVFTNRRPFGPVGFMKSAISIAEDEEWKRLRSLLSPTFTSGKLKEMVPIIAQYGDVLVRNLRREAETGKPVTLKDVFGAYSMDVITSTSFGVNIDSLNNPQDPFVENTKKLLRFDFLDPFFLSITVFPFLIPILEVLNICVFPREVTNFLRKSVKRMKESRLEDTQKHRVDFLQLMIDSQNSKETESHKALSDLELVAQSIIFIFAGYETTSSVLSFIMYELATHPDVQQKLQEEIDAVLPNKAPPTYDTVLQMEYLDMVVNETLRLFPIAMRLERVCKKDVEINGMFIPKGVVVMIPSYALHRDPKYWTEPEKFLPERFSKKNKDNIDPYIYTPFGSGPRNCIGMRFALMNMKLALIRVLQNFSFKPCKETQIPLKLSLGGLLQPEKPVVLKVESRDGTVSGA
UniProt P33261, whole entry: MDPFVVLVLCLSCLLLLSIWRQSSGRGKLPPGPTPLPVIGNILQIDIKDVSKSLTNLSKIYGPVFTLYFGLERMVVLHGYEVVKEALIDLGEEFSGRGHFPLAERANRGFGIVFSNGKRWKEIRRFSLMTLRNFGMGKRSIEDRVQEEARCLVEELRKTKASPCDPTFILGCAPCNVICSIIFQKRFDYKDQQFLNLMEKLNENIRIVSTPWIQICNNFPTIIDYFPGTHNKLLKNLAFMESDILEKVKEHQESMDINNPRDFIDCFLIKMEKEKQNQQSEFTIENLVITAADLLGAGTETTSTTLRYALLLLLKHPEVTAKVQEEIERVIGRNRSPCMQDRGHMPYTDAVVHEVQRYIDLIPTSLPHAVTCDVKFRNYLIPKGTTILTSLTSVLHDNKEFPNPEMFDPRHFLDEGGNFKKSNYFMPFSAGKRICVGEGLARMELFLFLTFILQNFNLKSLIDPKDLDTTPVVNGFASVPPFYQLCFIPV

This is a selection: effects in other tests are not listed, and their absence says nothing.

In one assay the target is human CYP2D6 (Homo sapiens, UniProt P10635).
Another assay deals with human CYP1A2 (Homo sapiens, UniProt P05177). The conditions noted are these: read-out: CYP1A2 AC50 (half-maximal activity concentration); mean ± standard deviation from three experiments; words = activity call.
A further assay concerns the target human CYP2C9 (Homo sapiens, UniProt P11712). The conditions noted are these: mean ± standard deviation from three experiments; words = activity call.
The target of another assay is CYP3A4 (Homo sapiens, UniProt P08684). The settings on record: read-out: CYP3A4 AC50 (half-maximal activity concentration); mean ± standard deviation from three experiments; words = activity call.
The target in a further assay is human CYP2C19 (Homo sapiens, UniProt P33261). The settings on record: mean ± standard deviation from three experiments; words = activity call.

Take `Cc1c([N+](=O)[O-])cccc1[N+](=O)[O-]`: the “CYP2D6 AC50 (half-maximal activity concentration)” value at human CYP2D6 (mean ± standard deviation from three experiments, words = activity call) is “Inactive”. For the same molecule, the AC50 came out at 16.8 µM on human CYP1A2 and 15.4 µM at CYP3A4. Moreover, the “CYP2C9 AC50 (half-maximal activity concentration)” value at human CYP2C9 was “Inactive”. Besides, at human CYP2C19, the “CYP2C19 AC50 (half-maximal activity concentration)” value was “Inconclusive”.

One may read the IC50 as the midpoint of a concentration-inhibition curve. With norfentanyl, the IC50 on human CYP2D6 (read-out: IC50 CYP2D6 assay, P450-Glo, 30 µM Luciferin-ME EGE, 60 min RT, mean ± SD) came to 4.5 µM.
